Source: article PMC8883701 (Genome Biology, 2022)

Protein sequences, listed by entry. Tags and fused reporters are not part of them.
UniProt P27694, whole entry, chain 1 of 3: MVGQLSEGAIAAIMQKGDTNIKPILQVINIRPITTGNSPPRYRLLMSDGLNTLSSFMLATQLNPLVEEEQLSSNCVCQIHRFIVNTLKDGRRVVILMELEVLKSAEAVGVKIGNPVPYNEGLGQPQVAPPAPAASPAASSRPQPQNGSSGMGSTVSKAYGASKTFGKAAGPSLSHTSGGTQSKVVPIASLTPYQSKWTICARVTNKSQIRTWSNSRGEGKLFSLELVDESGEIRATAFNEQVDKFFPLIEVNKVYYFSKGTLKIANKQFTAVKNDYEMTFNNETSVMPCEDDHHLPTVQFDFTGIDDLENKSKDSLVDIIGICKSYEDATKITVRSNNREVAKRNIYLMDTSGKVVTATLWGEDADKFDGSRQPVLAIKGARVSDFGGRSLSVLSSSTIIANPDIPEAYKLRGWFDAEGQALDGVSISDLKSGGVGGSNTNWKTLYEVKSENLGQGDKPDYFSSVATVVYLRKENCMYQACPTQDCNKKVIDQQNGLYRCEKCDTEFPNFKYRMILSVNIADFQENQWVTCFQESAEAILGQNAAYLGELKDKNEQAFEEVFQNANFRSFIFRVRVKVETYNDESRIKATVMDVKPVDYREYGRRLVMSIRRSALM
recombinant RPA (RPA1, RPA2 and RPA3 co-purified), UniProt P15927, whole entry, chain 2 of 3: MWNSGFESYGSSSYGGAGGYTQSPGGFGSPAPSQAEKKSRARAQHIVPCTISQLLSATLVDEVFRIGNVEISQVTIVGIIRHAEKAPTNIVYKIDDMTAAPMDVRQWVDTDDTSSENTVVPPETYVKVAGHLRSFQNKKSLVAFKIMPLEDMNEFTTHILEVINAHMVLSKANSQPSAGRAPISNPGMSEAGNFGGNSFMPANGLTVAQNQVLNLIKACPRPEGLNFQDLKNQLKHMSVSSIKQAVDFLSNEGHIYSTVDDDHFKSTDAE
recombinant RPA (RPA1, RPA2 and RPA3 co-purified), UniProt P35244, whole entry, chain 3 of 3: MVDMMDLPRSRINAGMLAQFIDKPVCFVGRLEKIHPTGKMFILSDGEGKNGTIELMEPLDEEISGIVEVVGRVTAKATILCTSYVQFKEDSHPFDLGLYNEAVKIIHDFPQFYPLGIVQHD

Biological target: T1, recombinant RPA (RPA1, RPA2 and RPA3 co-purified) (UniProt P27694 1-616; P15927 1-270; P35244 1-121)
T1 construct: RPA1 subunit; RPA2 subunit; RPA3 subunit; source: bacteria cells, co-purified; copies: + +
Experiment: BLI; RPA immobilised on the sensor, various concentrations of recombinant LAP2α; global fitting; apparent KD
Settings: both partners purified

B1: His-tagged LAP2α (LAP2α/wt) (natural protein, UniProt P42166 1-694, looked up)
chain: MPEFLEDPSVLTKDKLKSELVANNVTLPAGEQRKDVYVQLYLQHLTARNRPPLPAGTNSKGPPDFSSDEEREPTPVLGSGAAAAGRSRAAVGRKATKKTDKPRQEDKDDLDVTELTNEDLLDQLVKYGVNPGPIVGTTRKLYEKKLLKLREQGTESRSSTPLPTISSSAENTRQNGSNDSDRYSDNEEGKKKEHKKVKSTRDIVPFSELGTTPSGGGFFQGISFPEISTRPPLGSTELQAAKKVHTSKGDLPREPLVATNLPGRGQLQKLASERNLFISCKSSHDRCLEKSSSSSSQPEHSAMLVSTAASPSLIKETTTGYYKDIVENICGREKSGIQPLCPERSHISDQSPLSSKRKALEESESSQLISPPLAQAIRDYVNSLLVQGGVGSLPGTSNSMPPLDVENIQKRIDQSKFQETEFLSPPRKVPRLSEKSVEERDSGSFVAFQNIPGSELMSSFAKTVVSHSLTTLGLEVAKQSQHDKIDASELSFPFHESILKVIEEEWQQVDRQLPSLACKYPVSSREATQILSVPKVDDEILGFISEATPLGGIQAASTESCNQQLDLALCRAYEAAASALQIATHTAFVAKAMQADISQAAQILSSDPSRTHQALGILSKTYDAASYICEAAFDEVKMAAHTMGNATVGRRYLWLKDCKINLASKNKLASTPFKGGTLFGGEVCKVIKKRGNKH
notes: LAP2α, alpha splicing product of TMPO; also called recombinant LAP2α; source: insect cells, purified
Binder B1 has a Kd of 22.4 nM.
